Consider 2 compounds from patent US8999323B2, “Composition that can be cured by polymerisation for the production of biodegradable, biocompatible, cross-linkable polymers on the basis of polyvinyl alcohol” (Technische Universität Wien, priority 2007, dated 2015).

A value given as a limit tells only on which side of the number the result lay.

A short description of the series: in vitro. To be noted: mouse.

The compound `C=COC(=O)NCCOP(=O)(OCC)OCC` [EPEVC, 2-(diethoxyphosphoryloxy)ethylamine vinyl carbamate] came in with a CC50 above 10 mM.

In turn, `C=COC(=O)P(=O)(OCC)OCC` [VCPDE, vinyloxycarbonyl phosphonic acid diethyl ester] came in with a CC50 above 10 mM.
